Apparent affinities of Ab-95 variants for a coronavirus HR2 peptide

Antigen: PDVDLGDISGINAS, a 14-residue peptide of the SARS-CoV-2 spike HR2 region.

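Phage display of a naive human antibody library on the peptide gave the parent. Library AAYL52 holds single substitutions and randomly drawn double and triple substitutions in the CDRs. AlphaSeq pools MATa yeast showing the antibodies with MATalpha yeast showing the peptide. Binding brings cells together so that they mate, and sequencing counts the barcode pairs among the diploids. Read counts were normalised to the haploid input and turned into Kd by a linear fit to BCL2-family pairs of known affinity, for each replicate. Mating was done three times.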

Parent scFv Ab-95: VH joined to VL by a 15-residue (Gly4Ser)3 linker. Changes lie in the light chain CDRs alone.
VH: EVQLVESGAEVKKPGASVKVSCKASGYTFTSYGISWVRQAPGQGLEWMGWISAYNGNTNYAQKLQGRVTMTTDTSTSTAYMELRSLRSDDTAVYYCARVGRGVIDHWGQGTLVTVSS
VL: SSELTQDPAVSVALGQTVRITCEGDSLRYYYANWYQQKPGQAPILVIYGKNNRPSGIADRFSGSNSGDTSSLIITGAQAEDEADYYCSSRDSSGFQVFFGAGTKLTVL

The parent's light chain CDRs are EGDSLRYYYAN, GKNNRPS, SSRDSSGFQVF; each variant's own CDRs replace them letter for letter.
Numbers give log10(Kd / nM), so 0 is 1 nM and 3 is 1 µM. Smaller is tighter.
Replicates are averaged; those with no signal do not enter the mean.
An entry "nd" has no value in the source: the pair was not observed among the diploids in that replicate. This suggests poor binding but is not conclusive.

With EGDSLRYYYKN / GKNNRDS / SSRDSSGFIVF the result was nd, nd, nd (controls 0 of 9).
With EGDSSRYYYAN / GKNNRYS / SSRDVSGFQVF the result was 3.27, 4.66, nd (mean 3.96; controls 2 of 9).
With ECDSLRYYYDN / GKNNRPS / SSRDSSGFQVP the result was 3.41, 3.88, 3.58 (mean 3.62; controls 1 of 9).
With TGDSLRYYYMN / GKNNRPS / SSDDSSGFQVF the result was 3.65, 3.56, 3.48 (mean 3.56; controls 3 of 9).
With EGDSLRYHYSN / GKNNRPS / SSRDSSGFQVF the result was 1.63, 1.67, 1.43 (mean 1.58; controls 3 of 9).
With EGDSLRAVYAN / GKNNRPS / SSNDSSGFQVF the result was 1.69, 2.07, 1.59 (mean 1.78; controls 3 of 9).
With EGYSLRYYYAN / GSNNRPS / SIRDSSGFQVF the result was 3.75, 2.51, 2.37 (mean 2.88; controls 3 of 9).
With EGDSWGYYYAN / GKNNRPS / SSRDSSGFQVF the result was 4.16, nd, nd (controls 1 of 9).
With EGDSLRHQYAN / GKNNRPS / SYRDSSGFQVF the result was 2.50, 2.45, 1.45 (mean 2.13; controls 6 of 9).
With EGDSLRAYYAN / GKNNHSS / SSRDSSGFQVF the result was nd, nd, 3.81 (controls 1 of 9).
With EGDSLRYYYAN / NKNKRPS / NSRDSSGFQVF the result was 2.97, 2.88, 2.88 (mean 2.91; controls 4 of 9).
With EGDSLRLQYAN / GKNNRPS / SSRNSSGFQVF the result was 0.88, 1.06, 0.59 (mean 0.84; controls 3 of 9).
With EGDSLDYYYAN / YKNNRPS / SSRDSSGFYVF the result was 3.55, nd, 4.25 (mean 3.90; controls 4 of 9).
With EGPSLRYYYAN / GKNNRPS / SSLDPSGFQVF the result was nd, nd, nd (controls 1 of 9).
With EGDSLRYYYAN / GKNMRPS / SSRDWSGFQVM the result was 2.98, 3.36, 3.11 (mean 3.15; controls 1 of 9).
With EGDSLRYYYAM / GKNNRPS / SSRDSQGQQVF the result was 4.21, 4.57, 4.13 (mean 4.30; controls 4 of 9).
With EGDSLCYYYAN / GKNNRPS / SSQDSSGFMVF the result was nd, nd, 3.00 (controls 1 of 9).
With EGDSLRYYYAN / GKNWWPS / CSRDSSGFQVF the result was nd, 4.68, 3.65 (mean 4.16; controls 3 of 9).
With EGDSLRYYYNN / GKNPRPY / SSRDSSGFQVF the result was nd, nd, nd (controls 3 of 9).
With EGWSLRYYYAN / GKNNRPS / SSRDSWGFQHF the result was 3.52, nd, nd (controls 5 of 9).
With EGDSLRYYYAW / GKNYRPS / SSRDSSGFQVG the result was 5.29, 5.47, 4.28 (mean 5.01; controls 0 of 9).
With EEDSLRYYYDN / GKNNRPS / YSRDSSGFQVF the result was 4.98, 4.17, nd (mean 4.58; controls 3 of 9).
With EGDNLRSYYAN / GKNNRPS / SSRTSSGFQVF the result was nd, 5.38, 3.74 (mean 4.56; controls 4 of 9).
With EGDSLRYSYAN / GKNNRPS / SSRPSSWFQVF the result was 5.16, nd, nd (controls 1 of 9).
With HGDSLPYYYAN / CKNNRPS / SSRDSSGFQVF the result was 4.60, nd, 3.39 (mean 4.00; controls 0 of 9).
With EGDSLRYYYAN / GKNGRPS / SSRDSWGFNVF the result was 3.95, 3.69, 3.72 (mean 3.79; controls 2 of 9).
With EGDSLRYYYAN / GKNNRPS / SSRDSSGFSVH the result was 2.42, 2.25, 2.24 (mean 2.30; controls 5 of 9).
With EGDSLRYYYAN / GKNSRPS / SSRDSSGSQVF the result was 2.69, 2.75, 2.53 (mean 2.66; controls 6 of 9).
With EGDSLRYYYAN / GKNNRPS / ASRDESGFQVF the result was 2.04, 2.28, 1.91 (mean 2.08; controls 3 of 9).
With EGDSLRYYYAN / GKRNRPS / SSRMSSGFQVV the result was 4.83, nd, nd (controls 1 of 9).
With EGDSLRYYYAN / GKNNRPS / TSFDSIGFQVF the result was nd, nd, 4.10 (controls 1 of 9).
With EGDSLRYYYGN / GKNNQPS / SSRDLSGFQVF the result was 5.55, nd, nd (controls 2 of 9).
With EGDSERYYYAN / GKNNRPS / SSRDSSNFQVV the result was nd, 5.81, nd (controls 2 of 9).
With EGRSLRYRYAN / GKNNRPS / SSRDSSGFQVF the result was 1.58, 1.69, 1.60 (mean 1.62; controls 1 of 9).
With EGDSLRYYYCQ / GKNNRPS / SSRDCSGFQVF the result was 3.56, nd, 3.95 (mean 3.76; controls 1 of 9).
With EWDSLRYYYAN / GKNNRPS / SSGDSSGFQSF the result was 3.77, 2.70, nd (mean 3.24; controls 6 of 9).
With EGDSLRYYYNN / GKNYRPS / SSRDSMGFQVF the result was nd, nd, nd (controls 0 of 9).
With EGDSLRYYYAN / GKWERPS / SSTDSSGFQVF the result was 4.61, nd, nd (controls 2 of 9).

Excerpt, the final 5 entries:

CDR-L1,CDR-L2,CDR-L3,"replicates, log10 nM",mean log10 Kd (nM),empty controls
EGRSLRYRYAN,GKNNRPS,SSRDSSGFQVF,"1.58, 1.69, 1.60",1.62,1/9
EGDSLRYYYCQ,GKNNRPS,SSRDCSGFQVF,"3.56, nd, 3.95",3.76,1/9
EWDSLRYYYAN,GKNNRPS,SSGDSSGFQSF,"3.77, 2.70, nd",3.24,6/9
EGDSLRYYYNN,GKNYRPS,SSRDSMGFQVF,"nd, nd, nd",nd,0/9
EGDSLRYYYAN,GKWERPS,SSTDSSGFQVF,"4.61, nd, nd",4.61,2/9

Nonspecific signal, from three strains lacking the peptide, appeared in 28% of pairings of library AAYL52, centred on 3.91 (5% of these signals below 2.90); values are not corrected for it. The control count says in how many pairings with the empty strains this scFv gave a signal.
For reference, the parent read 2.31 as the reference entry and 2.25 as a member of this library.

The measurements come from Engelhart et al. 2022 (doi:10.1038/s41597-022-01779-4) through the FLAb antibody collection.